{
  "source": "patent US20190369122A1",
  "about": "“METABOLIC DISORDERS” (priority 2016, published 2019)",
  "test_system": "primary hepatocytes",
  "assay": "Insulin signaling in primary hepatocytes (immunoblot)",
  "assay_type": "cell-based, mouse",
  "settings": "inhibitor 20 μM, ImP 100 μM, 24 h",
  "protocol": "Snap-frozen liver and harvested cells were lysed in buffer containing 50 mM Tris-HCl (pH 7.4), 150 mM NaCl, 1 mM EDTA, 1 mM Na3VO4, 20 mM NaF, 10 mM glycerophosphate, 1 mM PMSF, 10% glycerol, 1% Triton X-100 and protease inhibitor cocktail. For immunoprecipitation, the cell lysates were obtained in 0.3% CHAPS-containing lysis buffer, sonicated and centrifuged at 20,000 g for 15 min at 4° C., and the supernatant was incubated with 20 μl of anti-FLAG beads (Sigma) at 4° C. for 4 h under gentle agitation.\nPrimary hepatocytes were isolated from C57BL/6J mice by digesting liver with perfusion of collagenase type IV as described previously. After perfusion, 16×10^5 cells were plated on collagen-coated 60 mm dishes in Dulbecco's modified Eagle's medium (DMEM)/F12 supplemented with fetal bovine serum (FBS), penicillin/streptomycin and 100 nM dexamethasone. After 4 h, the medium was changed to DMEM/F12 containing penicillin/streptomycin.\nFor insulin stimulation, primary hepatocytes were cultured in DMEM/F12 with or without 100 μM imidazole propionate for 14 to 24 h and treated with 5 nM insulin for the indicated times. For amino acid deprivation, primary hepatocytes were cultured in DMEM/F12 for 24 h, rinsed once with Earle's Balanced Salt Solution (EBSS) and then incubated in EBSS for 1 h before incubation with 100 μM imidazole propionate for the indicated times.",
  "data": [
    {"smiles": "O=c1[nH]nc(Sc2ncc([N+](=O)[O-])s2)n1-c1ccc2c(c1)OCCO2", "note": "[B178D3, reference compound]", "values": [
      {"measurement": "restoration of imidazole propionate-induced IRS1 reduction", "value": "did not restore"}
    ]}
  ]
}
